{"source": "patent US12533408B2", "about": "“Treatment regimen for the treatment of autoimmune disorders” (Merck Patent GmbH, priority 2020, dated 2026)", "origin": "cited, not measured here", "system": "lymphocytes", "conditions": "in vivo; cited from earlier work"}
{"substance": "alemtuzumab", "values": [{"measurement": "recovery to LLN range after infusion, B lymphocytes", "result": 8, "unit": "months"}, {"measurement": "recovery to LLN range after infusion, T lymphocytes", "result": "~3", "unit": "years"}]}
